# Laboratory results as given in EP4635958A1, “PYRIMIDINE-CONTAINING POLYCYCLIC DERIVATIVE INHIBITOR, AND PREPARATION METHOD THEREFOR AND USE THEREOF” (Shanghai Hansoh Biomedical Co., Ltd., priority 2022, dated 2024).
# The chains behind the UniProt entries cited, without tags or fusion partners. Residues count along the entry.
# UniProt P01116, 1-188 isoform 2: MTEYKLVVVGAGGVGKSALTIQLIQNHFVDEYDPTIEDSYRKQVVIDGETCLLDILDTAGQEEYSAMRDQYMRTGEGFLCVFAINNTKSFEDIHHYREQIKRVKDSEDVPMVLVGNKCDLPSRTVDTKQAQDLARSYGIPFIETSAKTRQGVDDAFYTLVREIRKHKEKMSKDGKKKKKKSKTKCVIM
# UniProt P01116, 1-188 isoform 2 G12D: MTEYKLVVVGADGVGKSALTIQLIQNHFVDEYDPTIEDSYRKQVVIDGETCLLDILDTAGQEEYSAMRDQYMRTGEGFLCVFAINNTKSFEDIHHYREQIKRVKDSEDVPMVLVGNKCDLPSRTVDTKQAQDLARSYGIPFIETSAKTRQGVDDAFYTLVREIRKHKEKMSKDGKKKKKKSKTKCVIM
# pIC50: −log10 of the molar value.
# Columns and labels:
# KRAS G12D-SOS1 = KRAS G12D-SOS1 (Homo sapiens, UniProt P01116, G12D); assay: Blocking of KRAS G12D-SOS1 protein binding (Cisbio KRAS-G12D/SOS1 Binding Assay Kit, time-resolved fluorescence); settings: read-out: G12D SOS1 biochemical IC50; KRAS G12D-GTP and SOS1 protein, signal ratio 665nm/620nm
# Text: • 1. Experimental objective: The purpose of this test example is to test the ability of the compounds to block the binding of KRAS G12D and SOS1 proteins. • 2. Experimental reagents and instruments
# The centrifuge (5810R) was purchased from Eppendorf; the pipette was purchased from Eppendorf or Rainin; and the microplate reader was purchased from BioTek (United States) with a model of SynergyH1 multifunctional microplate reader.
# KRAS-G12D/SOS1 Binding Assay Kit was purchased from Cisbio, with a catalog number of 63ADK000CB17PEG; GTP was purchased from Sigma, with a catalog number of G8877; 384-well plate was purchased from Perkin Elmer, with a catalog number of 6007299.
# The Diluent buffer in the kit was used to dilute the compound into 10× compound solution of different concentrations, and 2 uL was added to each well of the 384-well plate. […] The plate was read using the time-resolved fluorescence program of the Biotek Synergy H1 instrument to detect fluorescence values at emission wavelengths of 665 nm and 620 nm.
# The signal ratio (665nm/620nm*10,000) was calculated, and the nonlinear fitting of the signal ratio and sample concentration was performed using a fourparameter equation in GraphPad Prism 6 to obtain the IC50 value.
# KRAS WT = KRAS WT (Homo sapiens, UniProt P01116); assay: KRAS WT biochemical assay (Table 1, no method of its own); settings: read-out: KRAS WT Biochemical IC50
# p-ERK in AsPC-1 cells = assay: Inhibition of p-ERK in AsPC-1 cells (LANCE Ultra phospho-ERK1/2 kit); settings: read-out: AsPC-1_pERK IC50, 2 h with compound
# Experimental: 1. Experimental objective: The inhibition activity of the example compounds on the phosphorylated ERK level in KRAS G12D mutant cells AsPC-1 was determined. 2. Experimental instruments: • 2.1 Instruments: Microplate reader (BioTek Synergy H1); Pipette (Eppendorf & Rainin) • 2.2 Reagents: Phosphorylated ERK1/2 (T202-Y204) LANCE Ultra Cellular Detection Kit was purchased from PerkinElmer, with a catalog number of TRF4000M; DMEM was purchased from Gibco, with a catalog number of 11995065; FBS was purchased from Gibco, with a catalog number of 10091148; PBS was purchased from Gibco, with a catalog number of 10010023; trypsin was purchased from Gibco, with a catalog number of 25200056; cell culture plates were purchased from Corning Company, with a catalog number of 3610; White opaque OptiPlate™-384 plates were purchased from PerkinElmer, with a catalog number of 6007290. 3. […] The plate was read using BioTek Synergy H1 and the signal values at the emission wavelengths of 620 nm and 665 nm were detected using a time-resolved fluorescence program. […] Experimental data processing method: The ratio of the signal values at the emission wavelengths of 665 nm and 620 nm was calculated, and the inhibition rate was calculated using the ratio. […]
# GP2D = assay: Inhibition of proliferation of KRAS G12D mutant tumor cell line GP2D (CellTiter-Glo); settings: read-out: GP2D IC50, about 72 h
compound,measurement,setting,value
"C#Cc1c(F)ccc2cc(O)cc(-c3nc4c5c(nc(OCC6(CN7CC8CCC7CC8=C(F)F)CC6)nc5c3F)N3C[C@H]5CC[C@H](N5)[C@H]3CO4)c12 (single isomer, unassigned) [Example 3-1]",pIC50,KRAS G12D-SOS1,8.66
same,pIC50,KRAS WT,7.21
same,pIC50,p-ERK in AsPC-1 cells,8.70
same,pIC50,GP2D,9.00
"C#Cc1c(F)ccc2cc(O)cc(-c3nc4c5c(nc(OCC6(CN7CC8CCC7CC8=C(F)F)CC6)nc5c3F)N3C[C@H]5CC[C@H](N5)[C@H]3CO4)c12 (single isomer, unassigned) [Example 3-2]",pIC50,KRAS G12D-SOS1,8.41
same,pIC50,KRAS WT,7.40
same,pIC50,p-ERK in AsPC-1 cells,8.80
same,pIC50,GP2D,8.92
